Values quoted from earlier work as cited in patent US8629103B2, “Treatment of non-proliferative cystic disease of the breast” (New York University, priority 2010, dated 2014).
Entries after “also recorded” stand apart in the source; their conditions may differ.

Sequences of proteins named here, by UniProt entry; tags and fusion partners are left off.
UniProt P30874, whole entry, species assumed: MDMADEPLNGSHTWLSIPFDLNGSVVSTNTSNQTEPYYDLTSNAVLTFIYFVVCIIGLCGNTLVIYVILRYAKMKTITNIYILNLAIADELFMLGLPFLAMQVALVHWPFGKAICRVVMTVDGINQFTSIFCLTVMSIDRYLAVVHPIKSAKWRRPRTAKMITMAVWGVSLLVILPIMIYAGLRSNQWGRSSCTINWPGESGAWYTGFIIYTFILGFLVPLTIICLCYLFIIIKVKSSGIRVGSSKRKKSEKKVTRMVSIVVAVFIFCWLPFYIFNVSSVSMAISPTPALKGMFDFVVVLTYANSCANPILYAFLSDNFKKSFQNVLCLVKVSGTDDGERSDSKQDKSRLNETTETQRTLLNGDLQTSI
UniProt P35346, whole entry, species assumed: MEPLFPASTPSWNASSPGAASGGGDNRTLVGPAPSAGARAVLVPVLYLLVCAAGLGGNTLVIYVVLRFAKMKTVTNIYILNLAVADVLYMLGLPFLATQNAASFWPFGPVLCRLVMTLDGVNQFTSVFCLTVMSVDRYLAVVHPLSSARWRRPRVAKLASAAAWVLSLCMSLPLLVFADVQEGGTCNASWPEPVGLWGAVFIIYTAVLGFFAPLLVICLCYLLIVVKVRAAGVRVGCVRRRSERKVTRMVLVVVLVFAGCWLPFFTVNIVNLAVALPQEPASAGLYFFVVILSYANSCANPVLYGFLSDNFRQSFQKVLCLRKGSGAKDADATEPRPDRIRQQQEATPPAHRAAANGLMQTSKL
UniProt P31391, whole entry, species assumed: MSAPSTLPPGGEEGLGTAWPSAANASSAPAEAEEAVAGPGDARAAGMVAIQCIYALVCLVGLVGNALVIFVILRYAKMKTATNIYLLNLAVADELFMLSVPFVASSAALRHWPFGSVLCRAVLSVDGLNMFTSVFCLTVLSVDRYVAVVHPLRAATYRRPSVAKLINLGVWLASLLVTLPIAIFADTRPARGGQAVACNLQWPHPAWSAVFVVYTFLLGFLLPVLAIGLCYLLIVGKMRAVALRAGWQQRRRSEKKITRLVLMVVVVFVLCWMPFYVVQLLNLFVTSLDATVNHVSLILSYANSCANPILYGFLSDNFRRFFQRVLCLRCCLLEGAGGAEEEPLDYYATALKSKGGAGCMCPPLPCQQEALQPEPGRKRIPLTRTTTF
UniProt P30872, whole entry, species assumed: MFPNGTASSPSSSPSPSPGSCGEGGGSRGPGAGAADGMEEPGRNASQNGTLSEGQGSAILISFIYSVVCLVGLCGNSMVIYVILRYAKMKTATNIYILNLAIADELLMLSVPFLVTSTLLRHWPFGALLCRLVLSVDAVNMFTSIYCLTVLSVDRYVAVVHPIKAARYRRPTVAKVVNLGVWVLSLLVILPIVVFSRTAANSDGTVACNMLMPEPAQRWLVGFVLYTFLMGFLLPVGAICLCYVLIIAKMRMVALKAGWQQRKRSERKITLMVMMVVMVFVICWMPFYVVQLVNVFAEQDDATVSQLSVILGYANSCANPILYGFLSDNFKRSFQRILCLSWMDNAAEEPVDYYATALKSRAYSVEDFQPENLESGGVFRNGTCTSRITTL
UniProt P32745, whole entry, species assumed: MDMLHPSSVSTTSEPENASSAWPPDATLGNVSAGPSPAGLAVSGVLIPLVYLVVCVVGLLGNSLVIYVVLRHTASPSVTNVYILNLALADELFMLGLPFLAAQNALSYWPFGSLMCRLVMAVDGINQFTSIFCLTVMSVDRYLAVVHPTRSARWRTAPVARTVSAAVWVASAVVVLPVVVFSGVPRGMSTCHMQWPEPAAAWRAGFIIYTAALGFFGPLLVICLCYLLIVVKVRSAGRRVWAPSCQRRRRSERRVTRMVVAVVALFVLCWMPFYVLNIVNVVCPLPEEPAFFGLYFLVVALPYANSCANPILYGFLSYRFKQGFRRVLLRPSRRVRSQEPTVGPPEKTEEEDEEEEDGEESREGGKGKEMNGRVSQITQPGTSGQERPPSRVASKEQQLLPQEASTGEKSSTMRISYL

Assays:
Conditions in all cases: cited from earlier work
[1] = target: SSTR-2 (Homo sapiens, UniProt P30874)
[2] = target: SSTR-5 (Homo sapiens, UniProt P35346)
[3] = target: SSTR-4 (Homo sapiens, UniProt P31391)
[4] = target: SSTR-1 (Homo sapiens, UniProt P30872)
[5] = target: SSTR-3 (Homo sapiens, UniProt P32745)

Substance | affinity for SSTR-2 [1] | affinity for SSTR-5 [2] | affinity for SSTR-4 [3] | affinity for SSTR-1 [4] | affinity for SSTR-3 [5]
octreotide | high | relatively low; also recorded: moderate | moderate | low | relatively low; also recorded: moderate
vapreotide | high | relatively low; also recorded: moderate | moderate | low | relatively low; also recorded: moderate
